# High-throughput results deposited in PubChem by National Center for Advancing Translational Sciences (NCATS).
# Compounds with a hit are over-represented: about 0.92% of the library has one in this group of screens.
# B2AR arrestin: agonists driving beta-arrestin recruitment to human beta2-adrenergic receptor | Potency, µM (doses to about 46.1 µM), for the others: top-dose activation, actives largely listed as activators | beta-arrestin recruitment to beta2AR, cell-based reporter | AID 492947 | hit rate 0.02% among 330,000 | P07550;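 note: potency is the fitted concentration of half-maximal effect; 0% = DMSO controls and full agonism = EC100 isoproterenol or metaproterenol; nearly all actives have a fitted effect of over 65% in size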
# GALK inhibitor: galactokinase (human) inhibition; P51570; Purified GALK, Kinase-Glo residual ATP luminescence; AID 1868; Potency, µM (titrated, usually from 57.5 µM), for inactives: at the top dose activity change, negative = inhibition, most hits filed as inhibitors; hit rate 0.007% among 270,000; note: potency is the fitted concentration of half-maximal effect; % is set by controls: 0 for no effect and ±100 for the full control effect
#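 Kinase-Glo Plus luminescence measured ATP left after a 1 h room-temperature reaction. The reaction used 5 nM GALK, 100 uM galactose and 35 uM ATP at pH 8.0 (20 mM HEPES, 5 mM MgCl2, 60 mM NaCl, 1 mM DTT, 0.01% BSA).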
# miR-21 reporter: miR-21 reporter, rising signal. HeLa miR-21 FLuc reporter, luciferase, 48 h. Potency, µM (titrated, usually from 38.3 µM), without a hit: at the top dose reporter change, positive = more light. 340,000 tested, under 10 active. AID 2288; active = well fitted rising curve with a large enough effect; inconclusive = small, poorly fitted or top-dose-only effect; inactive = no such curve, though single readings can be large or run the other way;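 also: % of control where 0% means no effect; miR-21 action dims this reporter so a rising signal means less miR-21 action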
#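 HeLa miR-21-FLuc reporter line, endogenous miR-21; 2000 cells/well in DMEM/10% FBS; compound titration up to ~40uM final, 48 h, 37 degree Celsius; luciferase detection reagent, 15 min lysis, CCD luminescence.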
# Coupling enz: inhibits coupling enzyme system, counter-screen for aldolase hits; coupling enzyme system counterscreen, AmpLite Red fluorescence; activity change, negative = inhibition, % at 58.2 µM, hits read low; hit rate 0.67% among 290,000; in the data active = activity change below about -30%; note: % is set by controls: 0 for no effect and ±100 for the full control effect
#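 First, compound is pin-transferred into glyceraldehyde-3-phosphate coupling-enzyme reagent at 57.5 uM final and held 10 min at RT. Next, substrate, coupling system and AmpLite Red are added. After 20 min RT, fluorescence (525/598 nm) is read.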
# uPA surface inh: inhibitors of cell surface uPA generation; cell surface uPA generation assay, qHTS; Potency, µM (highest dose often 38.3 µM), for the others: top-dose activity change, negative = inhibition, actives largely listed as inhibitors; hit rate 0.31% among 330,000; AID 540303; active = well fitted inhibition curve with a large enough effect; inconclusive = small, poorly fitted or top-dose-only effect; inactive = no such curve, though single readings can be large or run the other way; tested in mouse RAW 264.7 cells; note: potency is the fitted concentration of half-maximal effect; % is set by controls: 0 for no effect and ±100 for the full control effect; nearly all actives have a fitted effect of over 55% in size
# Giardia kill: Giardia lamblia killing; AID 540267; activity change, % at 7.66 µM, hits read low; Giardia lamblia trophozoite viability; hit rate 0.15% among 340,000; in the data active = activity change below about -80%; inconclusive = between about -30% and that limit;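 note: parasites exposed to compound for two days anaerobically before the ATP read; % is set by controls: 0 for no effect and ±100 for the full control effect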
#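 Each well holds 100 Giardia trophozoites and compound. After two days (48 hrs) at 37 deg C in anaerobic conditions, ATP is quantified by luminescence.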
# Active calls of the source: *; ? = inconclusive; . = not tested or not shown; ! = repeats disagree. Unless noted, calls come from the whole dose curve; as a rule, active = well fitted curve in the direction sought with a large enough effect; inconclusive = small, poorly fitted or top-dose-only effect, or another doubt; inactive = no such curve, though single readings can be large; an effect the other way counts as inactive or inconclusive.
1. COc1ccc(C)cc1N=Nc1ccc(O)c2ncccc12
2. CS(=O)(=O)N1CCN(c2ccc([N+](=O)[O-])c3cccnc23)CC1
3. O=[N+]([O-])c1ccc(O)c2ncccc12
4. Cc1nn(C)c(Cl)c1S(=O)(=O)N(Cc1ccco1)c1ncnc2nc[nH]c12
5. O=C(c1cccc(Cl)c1Cl)N(Cc1ccco1)Cc1cccs1
6. CCOC(=O)c1cnc(-c2ccccc2)[nH]c1=O
7. CCOC(=O)c1cnc(-c2cccc(OC)c2)[nH]c1=O
8. CC(C)(C)c1cc(C(=O)N2CCc3ccccc32)ccn1

Screen / compound no.,1,2,3,4,5,6,7,8
B2AR arrestin,0.2%,0.0%,?,.,.,0.2%,0.3%,-0.5%
GALK inhibitor,8.4%,-2.2%,3.9%,.,.,4.7%,0.6%,0.7%
miR-21 reporter,?,-6.5%,?,.,.,-8.4%,-16.0%,-6.4%
Coupling enz,-0.3,-8.3,-35.4*,.,.,-14.8,-33.0*,-0.8
uPA surface inh,3.55µM*,1.5%,?,.,.,-2.5%,1.1%,.
Giardia kill,-13.1,-82.0*,-11.5,2.7,21.1,-2.7,-14.5,-4.9

9. CC(C)(C)c1cc(C(=O)N2CCc3ccccc3C2)ccn1
10. CC(C)NC[C@H](O)c1ccc(O)c(O)c1
11. CCC(NC(C)C)C(O)c1ccc(O)c(O)c1 (stereo unspecified)
12. CCc1ccc(CNC(=O)c2ccc3c(Cl)c4c(nc3c2)CCCC4)cc1
13. O=C(CSc1c2c(nc3ccc(Cl)cc13)CCCC2)NCCCN1CCOCC1
14. CN1CCN(CCCNC(=O)c2ccc3c(Cl)c4c(nc3c2)CCCC4)CC1
15. O=C1C=CC[C@H](/C=C/C[C@@H](O)C[C@H](O)CCc2ccccc2)O1
16. O=C(O)c1ccc(NC2=C(N3CCOCC3)C(=O)c3ccccc3C2=O)cc1

Screen / compound no.,9,10,11,12,13,14,15,16
B2AR arrestin,0.1%,.,3.16µM*,.,0.0%,-0.1%,.,-0.4%
GALK inhibitor,-0.9%,.,-2.1%,.,-1.0%,6.4%,.,1.2%
miR-21 reporter,-15.8%,.,-28.1%,-5.7%,21.3%,-0.4%,.,-20.9%
Coupling enz,2.5,-65.5*!,-53.1*,.,1.8,.,.,-27.7
uPA surface inh,7.94µM*,3.9%,-32.2%,.,8.91µM*,11.2µM*,10µM*,0.2%
Giardia kill,-5.1,-24.2,7.8,.,-0.3,-27.5,9.8,13.8

17. Cc1ccc(NC2=C(N3CCOCC3)C(=O)c3ccccc3C2=O)cc1
18. Cc1ccc(S(=O)(=O)NC2=C(N3CCN(c4ccccc4F)CC3)C(=O)c3ccccc3C2=O)cc1
19. CC(=O)c1ccc(NC2=C(N3CCOCC3)C(=O)c3ccccc3C2=O)cc1
20. CCCS(=O)(=O)c1c(S(=O)(=O)CCC)c2c(N)cccn2c1C(=O)c1ccc(F)cc1
21. CN(C)c1ccc(-c2nc3ccccc3c(=O)[nH]2)cc1
22. COc1ccc(-c2nc3ccccc3c(=O)[nH]2)cc1
23. CC(=O)Nc1ccc(-c2cn3cc(C)ccc3n2)cc1
24. Cc1ccc2nc(-c3ccccc3)cn2c1

Screen / compound no.,17,18,19,20,21,22,23,24
B2AR arrestin,0.1%,0.1%,-0.8%,0.3%,0.1%,0.6%,-0.1%,0.2%
GALK inhibitor,-2.2%,4.5%,-0.3%,-0.8%,-2.0%,0.7%,2.0%,20.0%
miR-21 reporter,-33.6%,-39.0%,0.9%,3.2%,3.6%,-46.2%,-17.3%,?
Coupling enz,-50.0*,-26.5,-30.5*,-37.7*,1.8,-3.9,1.9,-13.4
uPA surface inh,?,4.7%,-29.4%,6.4%,1.41µM*,-17.1%,4.47µM*,-13.8%
Giardia kill,-18.6,-18.8,-8.0,16.9,?,?,?,?

# 4 compounds from above with just B2AR arrestin.
no. | SMILES | B2AR arrestin
21 | CN(C)c1ccc(-c2nc3ccccc3c(=O)[nH]2)cc1 | 0.1%
22 | COc1ccc(-c2nc3ccccc3c(=O)[nH]2)cc1 | 0.6%
23 | CC(=O)Nc1ccc(-c2cn3cc(C)ccc3n2)cc1 | -0.1%
24 | Cc1ccc2nc(-c3ccccc3)cn2c1 | 0.2%

# (list continues)
25. COC(CNC(=O)C1CCCN1C(=O)OCc1ccccc1)OC (stereo unspecified)
26. COC(=O)[C@@H]1C[C@]2(OC(=O)c3ccccc3)C=CC(=O)C[C@@H]2N1C(=O)OCc1ccccc1
27. Cc1c(CN(C)C(=O)c2cc(-c3ccccc3)nc3ccc(Br)cc23)cnn1C
28. CN(C)c1ccc(C(=O)Nc2cccc(S(=O)(=O)NC3=NCCCCC3)c2)cc1
29. CC(C)(C)c1ccc(C(=O)Nc2cccc(S(=O)(=O)NC3=NCCC3)c2)cc1
30. COc1ccc(-c2cn3c(n2)sc2cc(C(=O)NCC(C)c4ccccc4)ccc23)cc1 (stereo unspecified)
31. Cc1ccc(Cl)cc1NC(=O)c1sc2nc(-c3ccccc3)cn2c1C
32. CCOc1ccc(-c2cn3c(n2)sc2cc(C(=O)NCCCc4ccccc4)ccc23)cc1

Screen / compound no.,25,26,27,28,29,30,31,32
B2AR arrestin,0.0%,-1.0%,.,0.1%,-0.2%,.,.,.
GALK inhibitor,1.6%,.,.,.,.,.,.,.
miR-21 reporter,-0.9%,?,18.5%,.,.,8.7%,-16.0%,-0.6%
Coupling enz,-0.1,-0.1,.,.,.,.,.,.
uPA surface inh,4.1%,3.16µM*,.,?,3.98µM*,.,.,.
Giardia kill,16.4,7.5,.,?,?,.,.,.

33. Nc1ncnc2c1ncn2COC(CO)CO
34. COc1cc2c(-c3ccc4[nH]ccc4c3)c(-c3ccc(C#N)cc3)oc(=O)c2cc1OC
35. N#CCCCS(=O)(=O)c1nnnn1C1CCCCC1
36. COc1cc(NC(=O)c2ccc(-c3nc(CSc4ccccc4)c(C)o3)cc2)cc(OC)c1
37. O=C(c1ccc([N+](=O)[O-])o1)N1CCOCC1
38. O=C(c1ccc([N+](=O)[O-])o1)N1CCc2ccccc2C1
39. O=C(c1ccc([N+](=O)[O-])o1)N1CCc2ccccc21
40. O=C(c1ccc([N+](=O)[O-])o1)N1CCCCCC1

Screen / compound no.,33,34,35,36,37,38,39,40
B2AR arrestin,.,-0.4%,.,.,0.4%,0.3%,-0.6%,0.3%
GALK inhibitor,.,.,.,.,0.2%,-1.6%,.,.
miR-21 reporter,.,.,.,24.8%,17.5%,19.4%,-1.4%,.
Coupling enz,.,.,0.8,.,1.6,0.8,1.3,.
uPA surface inh,.,2.51µM*,.,.,-1.6%,7.08µM*,-7.5%,-16.9%
Giardia kill,-2.1,-10.1,.,.,?,-86.0*,-88.1*,-90.9*

41. Cc1ccc(NC(=O)Cn2c(=O)n(Cc3ccccc3)c(=O)c3sc4ccccc4c32)cc1
42. O=C(Nc1cc(F)ccc1F)N1CCC(CN2CCOCC2)CC1
43. CSc1nsc(/C=C/Nc2ccc(F)cc2)c1C#N
44. CSc1nsc(/C=C/Nc2ccc(O)cc2C)c1C#N
45. CCOC(=O)c1cccc(NC(=O)CC2C(=O)N(c3ccc(C)cc3)C(=O)N2Cc2cccc(OC)c2)c1 (stereo unspecified)
46. COc1ccccc1-c1cc(C(=O)NCc2cccs2)no1
47. COCCNC(=O)c1cc(-c2ccccc2OC)on1
48. O=C(CNC(=O)c1ccco1)N=Nc1c(O)n(CCc2ccccc2)c2ccccc12

Screen / compound no.,41,42,43,44,45,46,47,48
B2AR arrestin,.,.,0.3%,-0.5%,.,0.5%,0.1%,-0.6%
GALK inhibitor,.,.,10.8%,11.5%,.,-3.5%,1.7%,0.7%
miR-21 reporter,0.5%,-8.8%,-6.2%,-4.9%,21.4%,-22.8%,-10.5%,?
Coupling enz,.,.,-19.4,-32.9*,.,3.3,1.5,4.2
uPA surface inh,.,.,-7.6%,-5.0%,.,3.1%,7.08µM*,1.12µM*
Giardia kill,.,.,28.6,7.9,.,-7.8,-11.8,2.2

49. CCn1c(O)c(N=NC(=O)CNC(=O)Cc2ccccc2)c2ccccc21
50. CSCC[C@H](N)C(=O)N[C@@H](CCCN=C(N)N)C(=O)N[C@@H](CC(C)C)C(=O)N[C@@H](Cc1ccccc1)C(=O)N[C@H](C(=O)O)C(C)C
51. c1ccc(-c2cn3c(n2)-c2ccccc2C3)cc1
52. O=[N+]([O-])c1ccc(Sc2cccc[n+]2[O-])c2nonc12
53. O=[N+]([O-])c1ccc(Nc2ccccc2)c2nonc12

Screen / compound no.,49,50,51,52,53
B2AR arrestin,0.2%,.,-0.2%,0.5%,-0.3%
GALK inhibitor,8.4%,.,7.4%,1.6%,.
miR-21 reporter,-8.6%,.,2.2%,?,-0.9%
Coupling enz,0.9,0.3,-5.4,-80.3*,-1.3
uPA surface inh,2.1%,.,6.31µM*,?,-8.3%
Giardia kill,-5.0,.,?,-1.7,?
